From patent US12364690B2, “Therapeutic agent for bile duct cancer” (NATIONAL CANCER CENTER, priority 2015, dated 2025)
Read-outs that look alike come from different tables or passages of the source.

Amino acid sequences for entries named in this document (tags omitted). Chains listed by the source or under a name are the forms on record and can include a tag or linker.
UniProt P21802, with tags, fused parts or gaps isoform P21802-22: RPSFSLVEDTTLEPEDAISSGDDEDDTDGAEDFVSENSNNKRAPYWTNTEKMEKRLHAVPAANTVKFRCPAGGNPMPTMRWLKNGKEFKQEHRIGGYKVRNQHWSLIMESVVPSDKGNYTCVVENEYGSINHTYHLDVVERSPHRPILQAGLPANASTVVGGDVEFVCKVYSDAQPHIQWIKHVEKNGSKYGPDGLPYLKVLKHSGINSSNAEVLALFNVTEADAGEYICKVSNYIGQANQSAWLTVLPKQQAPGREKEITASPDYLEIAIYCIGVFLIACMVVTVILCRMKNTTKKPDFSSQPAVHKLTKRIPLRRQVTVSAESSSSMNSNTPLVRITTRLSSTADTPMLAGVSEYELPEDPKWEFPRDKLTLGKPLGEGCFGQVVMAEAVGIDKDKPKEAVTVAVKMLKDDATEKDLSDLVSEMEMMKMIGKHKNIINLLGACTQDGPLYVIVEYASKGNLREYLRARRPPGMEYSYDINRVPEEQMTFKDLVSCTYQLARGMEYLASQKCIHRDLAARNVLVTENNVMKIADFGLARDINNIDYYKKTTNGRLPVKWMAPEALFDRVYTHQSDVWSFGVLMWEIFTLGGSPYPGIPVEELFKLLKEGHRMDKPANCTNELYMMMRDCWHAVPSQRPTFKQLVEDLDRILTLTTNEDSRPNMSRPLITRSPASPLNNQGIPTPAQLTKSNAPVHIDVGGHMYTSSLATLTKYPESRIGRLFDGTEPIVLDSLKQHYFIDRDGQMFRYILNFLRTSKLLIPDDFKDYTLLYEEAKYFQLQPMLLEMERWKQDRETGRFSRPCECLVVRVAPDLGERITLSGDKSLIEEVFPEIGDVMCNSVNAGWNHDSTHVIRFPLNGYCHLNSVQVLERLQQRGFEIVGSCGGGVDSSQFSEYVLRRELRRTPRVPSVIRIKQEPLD
NIH3T3 cells transfected with FGFR2-TXLNA (Homo sapiens, UniProt P21802, DEL126-151/R152G), UniProt P21802, with tags, fused parts or gaps isoform P21802-22 DEL37-62/R63G: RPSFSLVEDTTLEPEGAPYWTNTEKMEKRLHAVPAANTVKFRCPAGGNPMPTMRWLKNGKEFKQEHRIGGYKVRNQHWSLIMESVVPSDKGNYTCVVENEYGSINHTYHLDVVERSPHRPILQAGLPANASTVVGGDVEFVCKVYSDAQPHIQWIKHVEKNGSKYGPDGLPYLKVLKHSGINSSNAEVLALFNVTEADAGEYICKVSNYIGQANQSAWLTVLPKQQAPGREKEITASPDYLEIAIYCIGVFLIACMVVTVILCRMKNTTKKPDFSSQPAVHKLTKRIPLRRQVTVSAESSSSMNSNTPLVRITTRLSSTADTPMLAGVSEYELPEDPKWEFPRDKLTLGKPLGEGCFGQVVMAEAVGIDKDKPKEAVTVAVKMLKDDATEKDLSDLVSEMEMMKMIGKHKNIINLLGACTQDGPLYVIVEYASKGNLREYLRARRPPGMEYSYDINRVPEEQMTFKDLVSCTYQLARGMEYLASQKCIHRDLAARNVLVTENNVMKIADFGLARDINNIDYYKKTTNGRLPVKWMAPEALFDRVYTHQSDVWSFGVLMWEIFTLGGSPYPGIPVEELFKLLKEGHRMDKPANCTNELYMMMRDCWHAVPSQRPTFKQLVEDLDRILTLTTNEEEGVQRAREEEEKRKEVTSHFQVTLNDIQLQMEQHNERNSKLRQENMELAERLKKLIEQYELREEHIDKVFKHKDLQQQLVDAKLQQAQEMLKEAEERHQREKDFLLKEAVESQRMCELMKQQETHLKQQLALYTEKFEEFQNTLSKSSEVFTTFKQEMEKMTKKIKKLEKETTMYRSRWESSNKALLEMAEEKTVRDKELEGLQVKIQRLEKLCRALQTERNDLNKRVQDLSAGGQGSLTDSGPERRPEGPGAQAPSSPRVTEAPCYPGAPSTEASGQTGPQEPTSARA
NIH3T3 cell transfected with FGFR2-BICC1 type2 (Homo sapiens, UniProt P21802, DEL126-151/R152G), UniProt P21802, with tags, fused parts or gaps isoform P21802-22 DEL37-62/R63G: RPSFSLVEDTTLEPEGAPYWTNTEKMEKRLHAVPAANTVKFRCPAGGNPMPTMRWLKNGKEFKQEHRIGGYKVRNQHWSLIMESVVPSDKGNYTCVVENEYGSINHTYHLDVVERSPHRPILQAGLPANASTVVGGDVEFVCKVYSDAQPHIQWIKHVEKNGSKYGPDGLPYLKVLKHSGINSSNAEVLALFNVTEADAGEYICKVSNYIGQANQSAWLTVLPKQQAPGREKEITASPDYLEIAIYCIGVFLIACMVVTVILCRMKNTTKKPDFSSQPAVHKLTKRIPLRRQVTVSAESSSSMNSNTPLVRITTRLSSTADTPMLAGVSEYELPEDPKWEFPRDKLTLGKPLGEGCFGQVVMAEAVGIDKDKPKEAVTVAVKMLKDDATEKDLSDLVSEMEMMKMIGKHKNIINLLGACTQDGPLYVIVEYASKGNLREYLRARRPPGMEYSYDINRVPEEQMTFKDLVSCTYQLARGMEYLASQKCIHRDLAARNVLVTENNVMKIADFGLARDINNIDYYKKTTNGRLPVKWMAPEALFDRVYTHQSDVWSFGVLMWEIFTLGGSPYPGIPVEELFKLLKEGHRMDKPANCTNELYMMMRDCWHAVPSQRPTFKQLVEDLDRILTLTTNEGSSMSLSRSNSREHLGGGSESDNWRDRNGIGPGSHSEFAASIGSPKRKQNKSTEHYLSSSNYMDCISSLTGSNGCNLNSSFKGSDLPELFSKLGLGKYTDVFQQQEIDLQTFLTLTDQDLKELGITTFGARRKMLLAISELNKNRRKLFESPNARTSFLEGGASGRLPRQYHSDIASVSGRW

Columns and labels:
[1] = target: NIH3T3 cells transfected with FGFR2-KCTD1 (Homo sapiens, UniProt P21802); details: final concentration 0.2 μM; soft agar; FIG. 5 and FIG. 6
Procedure: (§1) Using the following apparatus, the activity of FGFR inhibitors on the transformation capacity of FGFR2 fusion polypeptide was evaluated.

[2] = target: NIH3T3 cells transfected with FGFR2-TXLNA (Homo sapiens, UniProt P21802, DEL126-151/R152G); details: final concentration 0.2 μM; soft agar; FIG. 5 and FIG. 6
Procedure: as §1

[3] = target: NIH3T3 cell transfected with FGFR2-BICC1 type2 (Homo sapiens, UniProt P21802, DEL126-151/R152G)
Procedure: as §1

Compound: CCN(CC)CCCCNc1ncc2cc(-c3cc(OC)cc(OC)c3)c(NC(=O)NC(C)(C)C)nc2n1 [PD173074]
- anchorage independent growth [1]: significantly suppressed
- anchorage independent growth [2]: significantly suppressed
- anchorage independent growth ([3]; final concentration 0.2 μM, soft agar, FIG. 5 and FIG. 6): little suppressed
- anchorage independent growth ([3]; final concentration 1.0 μM, FIG. 7): suppressed
